The values below come from ChEMBL document CHEMBL4371007, “Biased Ligands of G Protein-Coupled Receptors (GPCRs): Structure-Functional Selectivity Relationships (SFSRs) and Therapeutic Potential” (J Med Chem, 2018).

Protein sequences, listed by entry. Tags and fused reporters are not part of them. Lines headed by an entry give the natural chain unless they say otherwise; changes in a name come on top.
UniProt P41145: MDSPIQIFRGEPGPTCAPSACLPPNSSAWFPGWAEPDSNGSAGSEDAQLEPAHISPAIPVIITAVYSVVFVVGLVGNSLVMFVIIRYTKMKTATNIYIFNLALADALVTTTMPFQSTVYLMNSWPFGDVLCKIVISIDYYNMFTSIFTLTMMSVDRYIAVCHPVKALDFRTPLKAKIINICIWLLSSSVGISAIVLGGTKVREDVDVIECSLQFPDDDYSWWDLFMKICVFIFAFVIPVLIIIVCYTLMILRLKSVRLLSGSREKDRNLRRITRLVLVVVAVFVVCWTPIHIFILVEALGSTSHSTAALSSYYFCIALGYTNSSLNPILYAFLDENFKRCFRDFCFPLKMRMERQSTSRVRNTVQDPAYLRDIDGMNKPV
UniProt P41146: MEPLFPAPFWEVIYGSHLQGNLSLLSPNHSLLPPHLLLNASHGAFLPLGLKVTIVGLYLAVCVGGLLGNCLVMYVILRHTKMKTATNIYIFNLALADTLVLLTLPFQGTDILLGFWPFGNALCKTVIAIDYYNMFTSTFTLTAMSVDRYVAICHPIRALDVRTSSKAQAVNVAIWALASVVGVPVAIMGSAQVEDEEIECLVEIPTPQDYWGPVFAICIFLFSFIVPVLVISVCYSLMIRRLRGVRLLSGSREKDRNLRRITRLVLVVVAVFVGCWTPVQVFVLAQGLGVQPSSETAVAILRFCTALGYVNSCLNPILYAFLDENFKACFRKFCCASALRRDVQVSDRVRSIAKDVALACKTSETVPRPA
UniProt P35372, whole entry, looked up: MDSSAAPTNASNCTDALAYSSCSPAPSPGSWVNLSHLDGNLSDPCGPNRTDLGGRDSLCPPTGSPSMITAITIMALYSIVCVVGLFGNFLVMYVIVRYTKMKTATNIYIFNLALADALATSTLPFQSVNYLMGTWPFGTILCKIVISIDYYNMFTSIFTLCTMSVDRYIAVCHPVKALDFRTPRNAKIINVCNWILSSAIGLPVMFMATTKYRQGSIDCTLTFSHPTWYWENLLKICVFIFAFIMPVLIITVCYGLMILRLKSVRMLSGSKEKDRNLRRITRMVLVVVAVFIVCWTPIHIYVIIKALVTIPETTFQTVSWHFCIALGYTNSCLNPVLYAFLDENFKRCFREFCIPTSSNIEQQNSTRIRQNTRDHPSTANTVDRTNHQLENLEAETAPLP

Test [1] has as its target Kappa-type opioid receptor (Homo sapiens) (UniProt P41145). In words: Agonist activity at kappa opioid receptor (unknown origin) expressed in HEK cells co-expressing luciferase based cAMP biosensor assessed as increase in cAMP accumulation after 20 to 30 mins by luciferase reporter gene assay relative to control.
The target is the same in test [2]. The test is described as follows: Agonist activity at kappa opioid receptor (unknown origin) assessed as increase in venus-tagged N-terminal beta-arrestin-2 recruitment by BRET assay relative to control.
The target of test [3] is Nociceptin receptor (Homo sapiens) (UniProt P41146). The test is described as follows: Agonist activity at human NOPR expressed in human BHK cells assessed as increase in beta-arrestin-1 recruitment relative to control.
Test [4] has the same target. In words: Agonist activity at human NOPR expressed in human BHK cells assessed as increase in beta-arrestin-2 recruitment relative to control.
Test [5] has the same target. In words: Agonist activity at human NOPR expressed in human BHK cells assessed as inhibition of forskolin-mediated cAMP accumulation after 10 mins by radioimmuno assay relative to control.
In test [6] the target is Kappa-type opioid receptor (Homo sapiens) (UniProt P41145). The test is described as follows: Agonist activity at human kappa opioid receptor expressed in CHO cell membranes assessed as increase in [35S]-GTPgammaS binding after 1 hrs by TopCount scintillation counting assay relative to control.
Test [7] concerns the target Mu-type opioid receptor (Homo sapiens) (UniProt P35372). In words: Agonist activity at Gi/o coupled human mu opioid receptor expressed in HEK293T cells co-expressing luciferase based cAMP biosensor and GRK2 assessed as increase in cAMP accumulation after 15 mins by FLIPR assay relative to control.
The target is the same in test [8]. In words: Agonist activity at human mu opioid receptor expressed in HEK293T cells co-transfected with venus-tagged N-terminal beta-arrestin-2 assessed as increase in beta-arrestin-2 recruitment after 30 mins measured for 1 sec by BRET-based luciferase reporter gene assay relative to control.
In test [9] the target is Kappa-type opioid receptor (Homo sapiens) (UniProt P41145). The test is described as follows: Agonist activity at human kappa opioid receptor expressed in human U2OS cells co-transfected with EFC and beta-arrestin-2 assessed as increase in beta-arrestin-2 recruitment after 90 mins by luminescence assay relative to control.
For test [10] the target is unchanged. In words: Agonist activity at human kappa opioid receptor expressed in human U2OS cells co-transfected with GFP and beta-arrestin-2 assessed as increase in beta-arrestin-2 recruitment after 20 mins by Hoechst staining-based assay relative to control.

For `COC(=O)[C@@H]1C[C@H](OC(=O)CSC#N)C(=O)[C@H]2[C@@]1(C)CC[C@H]1C(=O)O[C@H](c3ccoc3)C[C@]21C`, the Emax in [1] amounted to 99%; in [2] it was 126%.
Regarding `COC(=O)CN1CN(c2ccccc2)C2(CCN(Cc3cccc4ccccc34)CC2)C1=O`, the figures for the Emax in [3], in test [4] and in [5] were 58%, 29% and 74%, respectively.
Consider `Cc1ccc(NC(=O)[C@H]2CC=C[C@H]3CCN(Cc4ccccc4F)C(=O)[C@@H]23)cc1C(F)(F)F`, for which the Emax in test [6] came out at 89%.
In the case of `CC(Cc1ccsc1)NC(=O)NCC(Cc1ccccc1)N(C)C` (stereo unspecified), the Emax in [7] is 88%; in [8] it was 9.4%.
Turning to `Cc1ccc(CSc2nnc(-c3ccccn3)n2Cc2ccco2)cc1C(F)(F)F`, the figures for the Emax in test [6] and in test [9] were 94% and 97%, respectively.
Consider `Ic1ccc(CSc2nnc(-c3ccccn3)n2Cc2cccnc2)cc1`, for which the Emax in test [10] stood at 101%.
